Species on record: Cavia porcellus
Experiment: Selectivity index, ratio of Ki for sigma2 receptor in guinea pig brain membrane […]
Type: cell membranes

For COC(=O)C1(c2ccccc2)CC1CN1CCC(O)(c2ccc(Cl)cc2)CC1 (racemic), the Ratio Ki was 4.2.
For COC(=O)C1(c2ccccc2)CC1CN1CCC(O)(c2ccc(Cl)cc2)CC1 (single isomer, unassigned; (-)), the Ratio Ki was 4.2.
